Test results: patent US7112574B2, “C2,8-disubstituted adenosine derivatives and their different uses” (priority 2001, dated 2006)

Chains of the proteins cited; added tags and fusions are not shown. Lines headed by an entry give the natural chain unless they say otherwise; changes in a name come on top.
UniProt P25099, whole entry: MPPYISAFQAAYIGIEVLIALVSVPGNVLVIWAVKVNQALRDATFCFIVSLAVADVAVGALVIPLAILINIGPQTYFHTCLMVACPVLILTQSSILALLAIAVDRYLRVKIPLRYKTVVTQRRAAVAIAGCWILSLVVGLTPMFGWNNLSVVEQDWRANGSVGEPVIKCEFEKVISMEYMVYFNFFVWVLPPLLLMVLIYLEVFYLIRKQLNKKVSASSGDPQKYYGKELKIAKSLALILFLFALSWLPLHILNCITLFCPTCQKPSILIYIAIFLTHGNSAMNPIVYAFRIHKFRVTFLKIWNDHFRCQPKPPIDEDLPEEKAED
UniProt P30543, whole entry: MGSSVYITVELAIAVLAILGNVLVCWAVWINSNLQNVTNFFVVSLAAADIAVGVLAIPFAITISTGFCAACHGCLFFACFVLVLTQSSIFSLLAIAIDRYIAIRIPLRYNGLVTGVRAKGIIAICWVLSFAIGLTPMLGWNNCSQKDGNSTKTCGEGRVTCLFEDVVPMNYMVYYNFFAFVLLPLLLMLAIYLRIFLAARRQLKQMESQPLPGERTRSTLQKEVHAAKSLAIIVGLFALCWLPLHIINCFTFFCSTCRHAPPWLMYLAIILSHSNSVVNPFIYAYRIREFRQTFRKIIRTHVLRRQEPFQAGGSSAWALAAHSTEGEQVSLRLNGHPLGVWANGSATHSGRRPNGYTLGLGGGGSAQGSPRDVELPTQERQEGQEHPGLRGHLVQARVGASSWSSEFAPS

Experiments:
adenosine A1 receptor = adenosine A1 receptor (Rattus norvegicus, UniProt P25099); test: biochemical; conditions: read-out: % displacement at 10^-5 M, A1
adenosine A2A receptor = adenosine A2A receptor (Rattus norvegicus, UniProt P30543); conditions: ratio of Ki A3 (human) to Ki A2A (rat)

Structure (SMILES): CCCCC#Cc1nc(N)c2ncn([C@@H]3O[C@H](CO)[C@@H](O)[C@H]3O)c2n1 [Compound 3, 2-(1-hexynyl)adenosine]
- inhibition at 10 µM (adenosine A1 receptor): 63.7%
- A3/A2A (adenosine A2A receptor): 2.78
